Results: ChEMBL document CHEMBL1132561, “Identification and characterization of m1 selective muscarinic receptor antagonists1” (J Med Chem, 1999)

By UniProt entry, the sequences of proteins in these tests, tags left out.
UniProt P08173, whole entry: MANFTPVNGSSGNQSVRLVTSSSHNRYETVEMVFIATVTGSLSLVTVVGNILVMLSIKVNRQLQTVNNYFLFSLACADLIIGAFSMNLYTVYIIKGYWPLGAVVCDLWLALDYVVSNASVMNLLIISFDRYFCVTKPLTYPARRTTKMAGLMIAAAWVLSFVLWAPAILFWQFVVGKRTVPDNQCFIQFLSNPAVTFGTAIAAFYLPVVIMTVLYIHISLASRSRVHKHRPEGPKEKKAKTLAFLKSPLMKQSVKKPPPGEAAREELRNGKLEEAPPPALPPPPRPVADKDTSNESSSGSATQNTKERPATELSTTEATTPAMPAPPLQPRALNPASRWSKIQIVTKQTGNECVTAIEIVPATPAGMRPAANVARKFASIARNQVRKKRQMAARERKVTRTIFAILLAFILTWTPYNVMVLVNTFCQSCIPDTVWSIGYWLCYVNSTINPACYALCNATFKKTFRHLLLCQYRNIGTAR
UniProt P08172, whole entry: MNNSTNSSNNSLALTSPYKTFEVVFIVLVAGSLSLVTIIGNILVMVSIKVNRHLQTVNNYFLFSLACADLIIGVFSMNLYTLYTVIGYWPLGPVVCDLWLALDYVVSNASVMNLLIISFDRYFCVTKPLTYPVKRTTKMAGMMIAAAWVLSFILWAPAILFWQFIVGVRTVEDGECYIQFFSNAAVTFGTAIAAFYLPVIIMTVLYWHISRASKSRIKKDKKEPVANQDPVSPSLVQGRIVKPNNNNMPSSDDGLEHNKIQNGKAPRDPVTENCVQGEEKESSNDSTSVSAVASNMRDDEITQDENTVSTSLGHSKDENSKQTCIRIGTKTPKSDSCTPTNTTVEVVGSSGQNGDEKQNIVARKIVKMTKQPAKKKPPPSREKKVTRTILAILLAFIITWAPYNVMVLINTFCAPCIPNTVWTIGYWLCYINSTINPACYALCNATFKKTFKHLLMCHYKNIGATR

What was measured:
[1] = target: Muscarinic acetylcholine receptor M4 (Homo sapiens, UniProt P08173); test: biochemical; type: cell-based, CHO
[2] = target: Muscarinic acetylcholine receptor M2 (Homo sapiens, UniProt P08172); test: biochemical; type: cell-based, CHO

Q: What does the source list for `CCN1CCC(c2ccccc2)=C(C(=O)OCCc2ccc(OC)cc2)C1`?
A: IC50 [1]: 42.3 µM; IC50 [2]: 38.5 µM
